The source of these data is patent publication US8895281B2, “Method for preparing a site-specific physiologically active polypeptide conjugate” (Hanmi Science Co., Ltd, priority 2009, dated 2014).

The assay concerns the target GLP-1 receptor (CHO/GLP-1R cell line). Description: cell-based or functional assay.
As to CA-exendin-4-PEG (Lys12) (peptide), the In-vitro activity (%) (cAMP in CHO/GLP-1R cells, EC50 values compared) came to 2.1%.
CA-exendin-4-PEG (Lys27) (peptide) gave an In-vitro activity (%) (cAMP in CHO/GLP-1R cells, EC50 values compared) of 8.5%.
In turn, “imidazo-acetyl-exendin-4 (CA-exendin-4, Bachem, U.S.) (peptide)” yielded an In-vitro activity (%) (cAMP in CHO/GLP-1R cells, EC50 values compared) of 77%.
